Results published in ChEMBL document CHEMBL3621045, “Structural Insights Lead to a Negamycin Analogue with Improved Antimicrobial Activity against Gram-Negative Pathogens” (ACS Med Chem Lett, 2015).

Experiments:
[1] = test system: Escherichia coli; details: ATCC 25922
[2] = test system: Escherichia coli; details: ATCC 25922; remark: listed apart in the source

GENTAMICIN
MIC [1]: 0.5 µg/mL
MIC [2]: 0.5 µg/mL
